The assay has as its target Wee1 kinase domain (Homo sapiens, UniProt P30291). The experiment in a line: Wee1 Kinase Biochemical Assay (ADP-Glo). As to conditions: read-out: WEE1 kinase ADP-Glo IC50, 15 uM ATP. Here is the method: Wee1 Kinase Biochemical Assay Protocol
Wee1 kinase domain was purchased from Carna (catalog #05-177). Wee1 kinase activity was determined with Poly(Lys,Tyr 4:1) hydrobromide as a substrate (Sigma-Aldrich) and by measuring ADP production using the ADP-Glo Kinase Assay kit (Promega) following the manufacturer's instructions. The kinase reaction was performed using the following conditions:
Buffer: 40 mM Tris-HCl, 20 mM magnesium chloride, supplemented with 0.1 mg/mL bovine serum albumin and 2 mM DTT. The final reaction mix contained 1 nM Wee1 enzyme, 15 uM ATP, and 2 ng/mL Poly(Lys,Tyr 4:1) hydrobromide substrate. The reaction time was 4 hours at 25° C.
The ADP-Glo signal was measured using the Envision plate reader and the percentage inhibition of kinase activity calculated for each inhibitor tested. Percent inhibition of Wee1 kinase activity was calculated based on the following formula.
[formula] • SSample: the signal of compounds • SHigh Ctrl: the signal of high control (DMSO) • SLow Ctrl: the signal of low control (positive control Wee1 inhibitor at saturating concentration)

Amino acid sequences for entries named in this document (tags omitted). Residues count along the entry.
UniProt P30291, 299-569 limits assumed: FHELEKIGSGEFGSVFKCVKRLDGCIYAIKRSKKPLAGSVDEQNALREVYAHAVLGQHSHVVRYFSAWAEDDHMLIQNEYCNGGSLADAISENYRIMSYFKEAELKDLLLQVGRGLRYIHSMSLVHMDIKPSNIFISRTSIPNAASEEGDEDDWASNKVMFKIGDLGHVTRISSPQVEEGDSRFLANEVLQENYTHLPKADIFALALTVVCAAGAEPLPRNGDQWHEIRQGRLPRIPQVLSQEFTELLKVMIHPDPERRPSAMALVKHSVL

Molecules are shown by their SMILES.

One may read the IC50 as the concentration needed to halve the response being measured. Take `CC1(C)C[C@@H]2N(c3cccc(N=S(C)(C)=O)n3)c3nc(Nc4ccc([C@@H]5CCNC5)cc4)ncc3[C@]2(C)CO1`: the half-maximal inhibitory concentration (IC50) was in the range of 10 to 100 nM.

Source of the values: patent US20260166039A1 (SCHRÖDINGER, INC., priority 2022, published 2026).
